{"sequences": {"note": "Protein sequences, listed by entry. Tags and fused reporters are not part of them.", "UniProt P35398, whole entry": "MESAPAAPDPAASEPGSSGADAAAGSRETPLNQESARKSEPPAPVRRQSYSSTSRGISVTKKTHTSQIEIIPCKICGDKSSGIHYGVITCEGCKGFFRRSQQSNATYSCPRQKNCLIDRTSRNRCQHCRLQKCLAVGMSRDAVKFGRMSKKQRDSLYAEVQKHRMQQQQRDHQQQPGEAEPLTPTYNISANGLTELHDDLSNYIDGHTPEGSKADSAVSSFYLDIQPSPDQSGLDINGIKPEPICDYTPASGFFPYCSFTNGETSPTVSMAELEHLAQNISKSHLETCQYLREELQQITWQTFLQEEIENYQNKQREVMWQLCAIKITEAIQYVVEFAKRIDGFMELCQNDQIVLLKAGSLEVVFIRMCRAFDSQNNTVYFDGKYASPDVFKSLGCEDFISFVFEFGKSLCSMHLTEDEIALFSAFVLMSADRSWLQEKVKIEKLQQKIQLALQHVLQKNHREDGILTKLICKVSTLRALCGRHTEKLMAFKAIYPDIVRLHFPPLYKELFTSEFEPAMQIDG"}, "source": "PubChem BioAssay AID560", "about": "(The Scripps Research Institute Molecular Screening Center, 2006)", "note": "Only a part is listed here, and it is no random draw. Calls of active or inactive are those of the source.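 How the source made its calls: active means activation above the mean of all tested compounds plus 3 SD (cut at about 49% in these data); inactive means the rest.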"}
{"molecular_target": "Nuclear receptor ROR-alpha (Homo sapiens) (UniProt P35398)", "assay": "RORA ligand-binding domain transcriptional activation – cell-based, luminescence, primary screen (AID 560);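 further: 0% = DMSO-treated RORA cells and 100% = added signal equal to DMSO minus mock-transfected cells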", "conditions": "CHO-K1 Gal4-RORA LBD luciferase reporter, at 10 µM, active compounds read high, percent increase over mock-subtracted basal signal"}
{"smiles": "CCOP(C)(=S)SCC(=O)NC(C)(CC)C(=O)O", "note": "(configuration not stated)", "activation": "inactive: 6.8%"}
{"smiles": "Cc1ccccc1NP(C)(=O)Nc1ccccc1C", "activation": "inactive: -5.7%"}
{"smiles": "CN(C)CCOC(=O)C(O)(c1ccccc1)C1CCCCC1", "note": "(configuration not stated)", "activation": "inactive: -3.9%"}
{"smiles": "CP(=O)(Nc1ccccc1F)Oc1ccccc1", "note": "(configuration not stated)", "activation": "inactive: -7.1%"}
{"smiles": "CP(=O)(Nc1ccccn1)Oc1ccccc1", "note": "(configuration not stated)", "activation": "inactive: -6.7%"}
{"smiles": "COc1ccccc1OP(C)(=O)Nc1ccc(C)c(C)c1", "note": "(configuration not stated)", "activation": "inactive: -0.4%"}
{"smiles": "Cc1nc2ccc3ccccc3c2o1.O=[N+]([O-])c1cc([N+](=O)[O-])c(O)c([N+](=O)[O-])c1", "activation": "inactive: 2.6%"}
{"smiles": "COc1ccccc1OP(C)(=O)Nc1c(C)n(C)n(-c2ccccc2)c1=O", "note": "(configuration not stated)", "activation": "inactive: 4.5%"}
{"smiles": "CP(=O)(Oc1ccccc1)N1CCOC1=O", "note": "(configuration not stated)", "activation": "inactive: -15%"}
{"smiles": "CCN(CC)CC(O)COC(=O)C(O)(c1ccccc1)C1CCCCC1", "note": "(configuration not stated)", "activation": "inactive: -11.5%"}
{"smiles": "CP(=O)(NC(=O)Nc1ccccc1)Oc1ccccc1", "note": "(configuration not stated)", "activation": "inactive: -11%"}
{"smiles": "CCOP(C)(=S)SCC(=O)NC(C)C(=O)O", "note": "(configuration not stated)", "activation": "inactive: -17.7%"}
{"smiles": "CP(=S)(Nn1cnnc1)Oc1ccccc1", "note": "(configuration not stated)", "activation": "inactive: -8.9%"}
{"smiles": "Cc1ccc(NP(C)(=O)Oc2ccccc2)c(C)c1", "note": "(configuration not stated)", "activation": "inactive: 3.7%"}
{"smiles": "COc1ccccc1OP(C)(=O)Nc1ccc(C)cc1", "note": "(configuration not stated)", "activation": "inactive: -1.2%"}
{"smiles": "Cc1ccc(C)c(NP(C)(=O)Oc2ccccc2)c1", "note": "(configuration not stated)", "activation": "inactive: 1.4%"}
{"smiles": "Cc1nc2ccc3ccccc3c2s1.O=[N+]([O-])c1cc([N+](=O)[O-])c(O)c([N+](=O)[O-])c1", "activation": "inactive: 10%"}
